Assays:
[1] = molecular target: Glutamate carboxypeptidase 2 (Rattus norvegicus) (UniProt P70627); test: Percentage inhibition at 1 uM against rat Glutamate carboxypeptidase II, using a substrate concentration of 5 uM
[2] = molecular target: Glutamate carboxypeptidase 2 (Rattus norvegicus) (UniProt P70627); details: 100 uM

Protein sequences, listed by entry. Tags and fused reporters are not part of them.
UniProt P70627, whole entry, looked up: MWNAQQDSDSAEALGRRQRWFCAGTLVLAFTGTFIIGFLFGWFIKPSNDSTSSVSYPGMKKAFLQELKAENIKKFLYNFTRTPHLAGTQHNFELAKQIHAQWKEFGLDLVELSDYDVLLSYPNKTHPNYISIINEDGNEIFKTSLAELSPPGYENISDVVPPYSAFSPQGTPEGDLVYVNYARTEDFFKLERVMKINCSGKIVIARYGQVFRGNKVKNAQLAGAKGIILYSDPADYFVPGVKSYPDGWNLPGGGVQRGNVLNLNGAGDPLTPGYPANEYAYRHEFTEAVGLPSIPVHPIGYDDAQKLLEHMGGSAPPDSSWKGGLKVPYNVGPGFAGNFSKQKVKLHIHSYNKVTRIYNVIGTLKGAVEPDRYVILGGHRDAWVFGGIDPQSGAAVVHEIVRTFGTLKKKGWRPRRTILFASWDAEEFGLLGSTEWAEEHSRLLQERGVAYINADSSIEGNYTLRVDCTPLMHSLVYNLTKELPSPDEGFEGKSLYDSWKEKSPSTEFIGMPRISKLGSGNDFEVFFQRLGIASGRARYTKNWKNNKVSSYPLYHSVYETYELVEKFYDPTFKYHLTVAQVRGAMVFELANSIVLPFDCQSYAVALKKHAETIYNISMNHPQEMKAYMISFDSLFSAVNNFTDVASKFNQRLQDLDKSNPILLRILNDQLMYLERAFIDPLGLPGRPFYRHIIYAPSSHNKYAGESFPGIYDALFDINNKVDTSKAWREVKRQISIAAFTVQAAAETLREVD

| inhibition [1] [%] | inhibition [2] [%] | Structure (SMILES) |
| --- | --- | --- |
| 25 |  | O=C(O)CC[C@H](NC(=O)N[C@H](CCC(=O)O)C(=O)O)C(=O)O |
|  | 67 | O=C(O)CC[C@@H](NC(=O)N[C@H](CCC(=O)O)C(=O)O)C(=O)O |

— ChEMBL document CHEMBL1134332, “Design of remarkably simple, yet potent urea-based inhibitors of glutamate carboxypeptidase II (NAALADase)” (J Med Chem, 2001)
